Source: patent US20260132128A1, “COMPOUND FOR RECOVERING P53 MUTATION FUNCTION AND USE THEREOF” (SHENZHEN ZHONGGE BIOLOGICAL TECHNOLOGY CO., LTD., priority 2022, published 2026)

Sequences of proteins named here, by UniProt entry; tags and fusion partners are left off.
UniProt P08684, whole entry: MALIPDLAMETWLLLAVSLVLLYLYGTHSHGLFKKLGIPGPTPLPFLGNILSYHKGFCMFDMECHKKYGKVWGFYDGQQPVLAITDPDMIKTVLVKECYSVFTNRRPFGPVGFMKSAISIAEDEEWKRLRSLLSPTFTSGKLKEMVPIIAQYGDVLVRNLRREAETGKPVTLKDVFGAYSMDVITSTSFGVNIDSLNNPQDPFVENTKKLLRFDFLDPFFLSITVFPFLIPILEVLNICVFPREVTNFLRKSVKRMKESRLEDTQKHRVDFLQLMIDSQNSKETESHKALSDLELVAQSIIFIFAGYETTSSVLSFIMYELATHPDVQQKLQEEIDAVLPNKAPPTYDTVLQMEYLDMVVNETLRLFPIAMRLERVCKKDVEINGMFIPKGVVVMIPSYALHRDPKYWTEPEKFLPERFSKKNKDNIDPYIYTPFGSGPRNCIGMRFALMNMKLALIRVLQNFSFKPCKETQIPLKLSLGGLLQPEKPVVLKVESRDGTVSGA

How the values were obtained:
[1] = target: p53 Y220C (Homo sapiens, UniProt P04637, P309S/R273H/Y220C); assay: DNA binding test (HTRF): binding of P53Y220C protein to DNA; type: biochemical; conditions: HTRF, activation of p53 Y220C (aa 94-312) binding to biotin DNA
Experimental: (§1) In order to detect the ability of the aforementioned compounds to increase the binding of P53Y220C protein to DNA, the binding activity of p53 Y220C was measured by homogeneous time-resolved fluorescence (HTRF). Recombinant His-tagged p53 Y220C for HTRF measurement was expressed in bacteria E. coli. The recombinant protein was a truncated mutant containing only amino acids 94-312 of p53, and its sequence was […] […] VEGNLR VEYLDDRN TFRh[…] […]. The sense strand of the DNA double strand was 5′-[…]-3′, with a biotin tag at the 5′ end for activity assay, and the antisense strand was 5′-[…]-3′ 40 mL of assay buffer (20 mM Tris HCL, pH 7.5, 50 mM NaCl, 2 mM MgCl2, 0.02% Tween 20, 0.01% BSA, 1 mM DTT) was prepared. 10 mM compound was prepared and subjected to 3-fold dilution to obtain 10 dose gradient dilutions of the compound. 20 nL of the compound was added to a 384-well assay plate (PerkinElmer 6007299) using an Echo 655 Liquid Handler. P53Y220C protein was dissolved in assay buffer to reach a final concentration of 150 nM, and 5 μL thereof was added to each well, and incubated at room temperature for 5 min. DNA was dissolved in assay buffer to reach a final concentration of 150 nM, and 5 μL thereof was added to each well, and incubated at room temperature for 15 min. Anti 6HIS-XL665 (Cisbio 61HISXLB) was dissolved in assay buffer to reach a final concentration of 20 nM, and 5 μL thereof was added to each well. Streptavidin-Eu cryptate (Cisbio 610SAKLA) was dissolved in assay buffer to reach a final concentration of 0.625 nM, and 5 μL thereof was added to each well, and incubated at 27° C. for 1 hour. The plate was then read for signal values on an Envision (PerkinElmer 2105-0020) plate reader at 665 nm and 615 nm, respectively. GraphPad 9.0 was used to fit activation rate and compound concentration into a nonlinear regression curve (dose response-variable slope) to calculate EC50, and EC50 could be defined as the concentration required for the compound to achieve 50% effect. Activation rate={(A-C)/(C)}*100%, A=(signal value at 665 nm/signal value at 615 nm); C=average signal of negative control (wherein, negative control referred to 0.1% DMSO).

[2] = target: p53 Y220C (Homo sapiens, UniProt P04637, Y220C); assay: as above; type: biochemical; conditions: multiple ratio of EC50 of the compound to the reference compound, DNA binding test
Experimental: as §1

[3] = test system: NUGC-3 cells; assay: NUGC-3 cell proliferation assay (CTG); conditions: for GI50: 6 days, CTG; for Compound GI50 (nM)/Reference compound GI50 (nM): multiple ratio of GI50 of the compound to the reference compound
Experimental: In order to detect the inhibitory effect of the aforementioned compounds on the proliferation ability of NUGC-3 cells, 250 NUGC-3 cells (Nanjing Cobioer Biosciences Co., Ltd., CBP60492) were seeded into a 384-well plate (Corning 3765), 35 μL per well, and incubated overnight in a constant temperature incubator at 37° C. and 5% CO2. Then, 40 nL of the compound was added to the 384-well plate using an Echo 655 Liquid Handler, with a maximum final concentration of 10 μM, 1:3 serial dilutions, and a total of 10 doses. The culture was performed at 37° C. and 5% CO2 for 6 days. The plate was taken out from the incubator and equilibrated at room temperature for 10 minutes. 20 μL of CTG (Promage G7572) was added to each well of the plate according to the platemap. The plate was centrifuged at 1000 rpm for 1 min. The lysis of cells was induced by mixing on a shaker for 2 min. The plate was centrifuged at 1000 rpm for 1 min. Incubation was performed at room temperature for 10 min to stabilize luminescence signals. Luminescence values were recorded by Envision (PerkinElmer 2105-0020). GraphPad 9.0 was used to fit the inhibition rate and compound concentration into a nonlinear regression curve (dose response-variable slope) to calculate GI50, inhibition rate={1−(A−B)/(C−B)}*100%, A=signal value of compound; B=average signal of blank control; C=average signal of negative control (wherein negative control was 0.1% DMSO).

[4] = test system: BxPC-3 cells; assay: BxPC-3 cell proliferation test (CTG); conditions: 6 days
Experimental: To detect the inhibitory effects of the aforementioned compounds on the proliferation ability of BxPC-3 cells, 125 BxPC-3 cells (ATCC®CRL-1687) were seeded into a 384-well plate (Corning 3765), 35 μL per well, and placed in a constant temperature incubator at 37° C. and 5% CO2 overnight. Then, 40 nL of the compound was added to the 384-well plate using an Echo 655 Liquid Handler, with a maximum final concentration of 10 μM, 1:3 serial dilution, and in a total of 10 doses. Incubation was performed at 37° C., 5% CO2 for 6 days. The plate was taken out from the incubator and equilibrated at room temperature for 10 minutes. 20 μL of CTG (Promage G7572) was added to each well of the plate according to the platemap. The plate was centrifuged at 1000 rpm for 1 minute. The lysis of cells was induced by mixing on a shaker for 2 minutes. The plate was centrifuged at 1000 rpm for 1 minute. Incubation was performed at room temperature for 10 minutes to stabilize luminescence signals. Luminescence values were recorded by Envision (PerkinElmer 2105-0020). GraphPad 9.0 was used to fit the inhibition rate and compound concentration into a nonlinear regression curve (dose response-variable slope) to calculate GI50, inhibition rate={1−(A−B)/(C−B)}*100%, A=signal value of compound; B=average signal of blank control; C=average signal of negative control (wherein the negative control was 0.1% DMSO).

[5] = target: CYP 3A4 (Homo sapiens, UniProt P08684); assay: CYP 3A4 time-dependent inhibition test; conditions: midazolam substrate
[6] = Pharmacokinetic test in mice; conditions: mouse
Experimental: ICR male mice (15 to 35 g, 5 to 10 weeks old, Shanghai Xipuer-Bikai Experimental Animal Co., Ltd.) were selected as test animals in this study. The LC-MS/MS method was used to quantitatively determine drug concentrations in the plasma of mice at different time points after intravenous injection or oral gavage administration of the test compound to evaluate the pharmacokinetic characteristics of the compound in mice. The clear solution of the test compound was injected into ICR mice via the tail vein (without fasting, solvent: 40% hydroxypropyl-β-cyclodextrin) and administered to ICR mice by oral gavage (fasting for 10 to 14 hours, free drinking water, solvent: 0.2% hydroxypropyl cellulose, 0.5% Tween 80). For intravenous administration, blood was collected from the submandibular venous plexus at 0.033, 0.083, 0.25, 0.5, 1, 2, 4, 8, and 24 hours after administration, placed in an anticoagulant tube with EDTA-K2 (Jiangsu Kangjian Medical Supplies Co., Ltd.), mixed, and centrifuged at 2-8° C., 6800 g for 6 minutes to obtain plasma; for oral gavage administration, blood was collected from the submandibular venous plexus at 0.083, 0.25, 0.5, 1, 2, 4, 6, 8, and 24 hours after administration, placed in an anticoagulant tube with EDTA-K2 (Jiangsu Kangjian Medical Supplies Co., Ltd.), mixed, and centrifuged at 2-8° C., 6800 g for 6 minutes to obtain plasma. The blood drug concentration was determined by LC-MS/MS, and the relevant pharmacokinetic parameters were calculated by the non-compartmental linear logarithmic trapezoidal method using Phoenix WinNonlin™ Version 7.0 (Pharsight, USA) pharmacokinetic software.

pEC50 [1]	Compound	Compound EC50 (nM)/Reference compound EC50 (nM) [2]	GI50 [3] [µM]	Compound GI50 (nM)/Reference compound GI50 (nM) [3]	GI50 [4] [µM]	IC50 ([5]; read-out: IC50 (μM) 0 min, 0 min pre-incubation) [µM]	IC50 ([5]; read-out: IC50 (μM) 30 min, with NADPH, 30 min pre-incubation with NADPH) [µM]	IC50 ([5]; read-out: IC50 (μM) 30 min, without NADPH, 30 min pre-incubation without NADPH) [µM]	CL ([6]; iv 2.5 mpk) [mL/min/kg]	AUC ([6]; po 25 mpk, plasma) [ng·h/mL]	Cmax ([6]; po 25 mpk, plasma) [ng/mL]
> 7.00	COc1cc(S(C)(=O)=O)ccc1NCC#Cc1nc2c(NC3CCC(N4CC5(COC5)C4)CC3F)cccn2c1CC(F)(F)F (stereo not drawn)	A (A: EC50 of the compound≤EC50 of the reference compound)	< 1	B (B: GI50 of the reference compound < GI50 of the compound ≤ 3.0 * GI50 of the reference compound)	< 1	–	–	–	–	–	–
6.00 to 6.30	CNC(=O)c1ccc(NCC#Cc2nc3c(NC4CCC(N5CCOC6(CC6)C5)CC4)cccn3c2CC(F)(F)F)c(OC)c1 (single isomer, unassigned) [Compound 31a]	C (C: EC50 of the compound≥3*EC50 of the reference compound)	> 5	C (C: GI50 of the compound ≥ 3 * GI50 of the reference compound)	–	–	–	–	–	–	–
6.30 to 7.00	CNC(=O)c1ccc(NCC#Cc2nc3c(NC4CCC(N5CCOC6(CC6)C5)CC4)cccn3c2CC(F)(F)F)c(OC)c1 (single isomer, unassigned) [Compound 32a]	C (C: EC50 of the compound≥3*EC50 of the reference compound)	> 5	C (C: GI50 of the compound ≥ 3 * GI50 of the reference compound)	–	–	–	–	–	–	–
> 7.00	COc1cc(S2(=O)=NCCCC2)ccc1NCC#Cc1cc2c(NC3CCN(C)CC3F)cccc2n1CC(F)(F)F (single isomer, unassigned) [Compound 37e]	B (B: EC50 of the reference compound<EC50 of the compound≤3.0*EC50 of the reference compound)	–	B (B: GI50 of the reference compound < GI50 of the compound ≤ 3.0 * GI50 of the reference compound)	–	–	–	–	–	–	–
> 7.00	COc1cc(S2(=O)=NCCCC2)ccc1NCC#Cc1cc2c(NC3CCN(C)CC3F)cccc2n1CC(F)(F)F (single isomer, unassigned) [Compound 37f]	B (B: EC50 of the reference compound<EC50 of the compound≤3.0*EC50 of the reference compound)	–	C (C: GI50 of the compound ≥ 3 * GI50 of the reference compound)	–	–	–	–	–	–	–
> 7.00	COc1cc(S2(=O)=NCCCC2)ccc1NCC#Cc1cc2c(NC3CCN(C)CC3F)cccc2n1CC(F)(F)F (single isomer, unassigned) [Compound 37g]	A (A: EC50 of the compound≤EC50 of the reference compound)	–	A (A: GI50 of the compound ≤ GI50 of the reference compound)	–	–	–	–	–	–	–
> 7.00	COc1cc(S2(=O)=NCCCC2)ccc1NCC#Cc1cc2c(NC3CCN(C)CC3F)cccc2n1CC(F)(F)F (single isomer, unassigned) [Compound 37h]	B (B: EC50 of the reference compound<EC50 of the compound≤3.0*EC50 of the reference compound)	–	C (C: GI50 of the compound ≥ 3 * GI50 of the reference compound)	–	–	–	–	–	–	–

Compound	pEC50 [1]	Compound EC50 (nM)/Reference compound EC50 (nM) [2]	GI50 [3] [µM]	Compound GI50 (nM)/Reference compound GI50 (nM) [3]	GI50 [4] [µM]	IC50 ([5]; read-out: IC50 (μM) 0 min, 0 min pre-incubation) [µM]	IC50 ([5]; read-out: IC50 (μM) 30 min, with NADPH, 30 min pre-incubation with NADPH) [µM]	IC50 ([5]; read-out: IC50 (μM) 30 min, without NADPH, 30 min pre-incubation without NADPH) [µM]	CL ([6]; iv 2.5 mpk) [mL/min/kg]	AUC ([6]; po 25 mpk, plasma) [ng·h/mL]	Cmax ([6]; po 25 mpk, plasma) [ng/mL]
CNC(=O)c1ccc(NCC#Cc2nc3c(NC4CCC(N5CCOCC5)CC4F)cccn3c2CC(F)(F)F)c(OC)c1 (stereo not drawn)	> 7.00	B (B: EC50 of the reference compound<EC50 of the compound≤3.0*EC50 of the reference compound)	< 1	B (B: GI50 of the reference compound < GI50 of the compound ≤ 3.0 * GI50 of the reference compound)	< 1	3.87	1.99	7.06	13	43085	11831

pEC50: −log10 of the molar value. Read-outs that look alike come from different tables or passages of the source. Marks after values point to notes of the source that are not given here.
